Binding of CDR-mutated scFvs to a peptide of the spike HR2 region

Source: Li et al. 2023 (doi:10.1038/s41467-023-39022-2), MIT Lincoln Laboratory and A-Alpha Bio; data file from the FLAb repository.

Target: peptide PDVDLGDISGINAS, taken from heptad repeat 2 (HR2) of SARS-CoV-2 spike.

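These sequences belong to a second round, designed from the earlier measurements on random variants of the parent. Group labels follow the data file (Ctrl: baseline library sampled from a position-specific scoring matrix, with some repeated check sequences; Rand: our label for a block that the file lists under HC and that is probably the random mutants of the ten best first-round binders; GP: Gaussian process model; HC: hill climbing; Gen: genetic algorithm; Gibbs: Gibbs sampling; a sequence that several methods proposed may carry one label only). In AlphaSeq, yeast of one mating type display the scFv and yeast of the other type display the target. After mating in shaken culture at 30 °C for 16 h, diploids were selected and their barcode pairs sequenced. Read counts were normalised to the haploid input and turned into Kd by a linear fit to BCL2-family pairs of known affinity, for each replicate. The assay was run in six technical replicates.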

Ab-14 is the parent antibody, in scFv form: VH, then the linker GGGGSGGGGSGGGGS, then VL. The heavy chain is unchanged in all variants.
VH: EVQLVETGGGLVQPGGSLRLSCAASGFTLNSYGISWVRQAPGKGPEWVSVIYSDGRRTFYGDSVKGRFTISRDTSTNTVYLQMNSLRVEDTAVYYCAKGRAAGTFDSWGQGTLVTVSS
VL: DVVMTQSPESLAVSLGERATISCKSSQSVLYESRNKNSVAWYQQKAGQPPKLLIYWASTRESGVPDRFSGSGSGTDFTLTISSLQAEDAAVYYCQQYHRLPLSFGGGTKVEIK

The parent's light chain CDRs are KSSQSVLYESRNKNSVA, WASTRES, QQYHRLPLS; each variant's own CDRs replace them letter for letter.
Variants here have at most six changes.
Each Kd is an estimate from the mating assay, the geometric mean of the replicates in which the pair was seen; lower is stronger.
"nd" marks a missing value. The strain was present, yet no cells mated with the target were sequenced in any replicate, which points to weak or no binding.
In the paper, a design with two or fewer of six values counts as a poor binder.
Empty control strains, which show no peptide, gave a signal in 4% of pairings with all light chain designs; the median was 430 nM and 95% of these signals were weaker than 38 nM. No background was subtracted.
Values of this round are not directly comparable with the first-round values of the same sequences.

* KVLQSVVYEGRNKNSVA, DASTRED, QQYHRLPLS [GP_HC]: 1.1 nM (6 of 6 replicates)
* KLSQSDLYESRQKNSVA, NASQRES, QQYHRLPLS [GP_Gen]: 1.5 nM (6 of 6 replicates)
* KQSQLVWYEQRNKNSVA, EGSTRES, QQYHRLPLS [GP_Gibbs]: 970 pM (6 of 6 replicates)
* KFSQSVLYETRNKNSVA, WASTRES, QQYHRLPLG [Ctrl]: 39 nM (6 of 6 replicates)
* KVSQSQLYESRNKNSVA, NASTREV, QQYHRLPLS [GP_Gen]: 1.3 nM (6 of 6 replicates)
* KYSASVLYESRNKNSVA, WASTRES, QQYHRLPLS [Ctrl]: 44 nM (6 of 6 replicates)
* KSSQSVLIMSRNFNSVA, HASTRES, QQYHRLPLS [Ctrl]: 22 nM (6 of 6 replicates)
* KSSTSVLYESRNKNSVA, WVSTRER, QQYCRLPLS [Ctrl]: 370 nM (2 of 6 replicates)
* KCDQWVDYGSRNKNSVA, DASTRES, QQYHRLPLS [GP_Gibbs]: 490 pM (6 of 6 replicates)
* IAMQSWLYESRNKNSVA, GASTRES, QQYHRLPLI [GP_HC]: 5.5 nM (6 of 6 replicates)
* KLQQSVLYESRNKNSVA, EASTREE, QQYHRLPLS [GP_Gen]: 880 pM (6 of 6 replicates)
* KFSQSELYEERNQNSVA, GASTRLS, QQYHRLPLS [GP_Gibbs]: 630 pM (6 of 6 replicates)
* KSSQSVLYEEPNKNSVA, WASTRES, QQYHRLPLS [Ctrl]: 33 nM (3 of 6 replicates)
* KLSQSQLYESRNKNSVA, NASTRLM, QQYHRLPLS [GP_Gen]: 680 pM (6 of 6 replicates)
* KSSQSHLQESRNKNSVA, WASTRES, QQCHRLPLS [Ctrl]: nd (0 of 6 replicates)
* KSSWSVLPESRNKNSVA, DASTRSS, QQYHRLPLS [GP_HC]: 1.1 nM (6 of 6 replicates)
* KSSQSVLYESRMKWSVA, QASTRES, QQYHRLPLS [Ctrl]: nd (0 of 6 replicates)
* KLSQSELYESRNKNSVA, NASTREW, QQYHRLPLS [GP_Gen]: 760 pM (6 of 6 replicates)
* KLSQSMEYESRNKASVA, HASTRES, QQYHRLPLS [GP_Gibbs]: 2.5 nM (6 of 6 replicates)
* KSKQSVLYESRNKNSVA, WASTRES, GQYHRGPLS [Ctrl]: nd (0 of 6 replicates)
* KSSQSVSYESRNKNSVA, GASTRES, QQYHRLPLS [Ctrl]: 2.7 nM (6 of 6 replicates)
* KISQSVLYESRNKNSVA, WASTRES, QQYHRLPLS [Ctrl]: 6.9 nM (6 of 6 replicates)
* KLPQSVLYESRNKNSVA, QASTRES, QQYHRLPLM [GP_Gen]: 520 pM (6 of 6 replicates)
* KCMQSVLYESRNKNSVA, WASTRES, QQDHRHPLS [Ctrl]: nd (0 of 6 replicates)
* KLSQMVEYESRNKNSVA, NASTRES, QQYHRLPLS [GP_Gen]: 1.7 nM (6 of 6 replicates)
* HESPSVDYESRNKNDVA, NASTRES, QQYHRLPLS [Rand]: 1.7 nM (6 of 6 replicates)
* KLEQSFLYESRNKNSVA, NASQRES, QQYHRLPLS [GP_Gen]: 320 pM (6 of 6 replicates)
* KSSQSVLYDSSNKNSVA, WASTRES, QQYHRLPLS [Ctrl]: 2.5 nM (1 of 6 replicates)
* KMSQSVLYESRNKNSVA, WASTRCS, QQYHRLPLS [Ctrl]: 7.5 nM (6 of 6 replicates)
* KMEQGVPYESRNKNSVA, GASVRES, QQYHRLPLS [GP_HC]: 400 pM (6 of 6 replicates)
* KFSQSVLYESRGKNSVA, WASTRES, QQYHRLPLS [Ctrl]: 31 nM (6 of 6 replicates)
* KHSQSVLYESRNKNSVA, DASTRSS, QQYHRLPLS [GP_HC]: 970 pM (6 of 6 replicates)
* KSSQSVLYEQRNKNSVA, QASTRES, QQYHRLPLS [Ctrl]: 19 nM (6 of 6 replicates)
* KQSQEPLYESRNKNSVA, DASTRES, QQYHRLPLS [GP_HC]: 2.5 nM (6 of 6 replicates)
* KLRQSWLYESRNKNSVA, NASQRES, QQYHRLPLS [GP_Gen]: 530 pM (6 of 6 replicates)
* KSSQGVMDESRNKNSVA, WGSTRES, QQYHRLPLS [Ctrl]: 14 nM (6 of 6 replicates)
* KLDQSVLYESRNKNSVA, DASQRES, QQYHRLPLS [GP_Gen]: 530 pM (6 of 6 replicates)
* KLSQSELYESRNKNNVA, NASTRES, QQYHRLPLS [GP_Gen]: 270 pM (6 of 6 replicates)
* KLQQQGLYESRNKNSVA, SASTREE, QQYHRLPLS [GP_HC]: 900 pM (6 of 6 replicates)
* KLWQSELYESRNKNSVA, NASQRES, QQYHRLPLS [GP_Gen]: 1.7 nM (6 of 6 replicates)
* KSSQHVLGESRNKNSVA, AASTRES, QQYHRLPLS [Ctrl]: 9.8 nM (6 of 6 replicates)
* KSSQSCLYESRNKNPVA, NASTRES, QQYHRLPLS [Ctrl]: 12 nM (6 of 6 replicates)

A selection of 6 entries from above:

CDR-L1	CDR-L2	CDR-L3	group	apparent Kd	detected
KSSQHVLGESRNKNSVA	AASTRES	QQYHRLPLS	Ctrl	9.8 nM	6 of 6
KSSQSVLIMSRNFNSVA	HASTRES	QQYHRLPLS	Ctrl	22 nM	6 of 6
KSSQSVSYESRNKNSVA	GASTRES	QQYHRLPLS	Ctrl	2.7 nM	6 of 6
KLDQSVLYESRNKNSVA	DASQRES	QQYHRLPLS	GP_Gen	530 pM	6 of 6
KSSQSVLYEQRNKNSVA	QASTRES	QQYHRLPLS	Ctrl	19 nM	6 of 6
KLSQSDLYESRQKNSVA	NASQRES	QQYHRLPLS	GP_Gen	1.5 nM	6 of 6